According to US20040191303A1, “Use of selectin-binding pregnancy proteins, liposomes, native mucin fragments and mimetic compounds for the treatment and prophylaxis inflammatory diseases, for preventing metastatic spread and for the prophylaxis of tumour diseases” (priority 2000, published 2004):

Tests used:
activated HUVEC = assay: Adhesion inhibition test: HepG2 hepatoma cells to IL-1β activated HUVEC; type: cell-based, human; conditions: HepG2 cell adhesion
Description: (§1) The adhesion test described below is used in vitro to test the active substances. To this end, either recombinant E-selectin is immobilized on 96-well titer plates, or the expression of E-selectin on activated endothelial cells from veins of human umbilical cords (HUVEC) is induced by stimulation with cytokines. Culturing of HUVEC endothelial cells is also performed in 96-well microtiter plates.
(§2) E-selectin (R & D Systems) (5 μg/ml) is immobilized by incubating at 4° C. over-night. The plates are washed with a calcium-containing phosphate buffer (Ca-PBS) and blocked with 1% bovine serum albumin (BSA) for 1 hour at room temperature. Amniotic hCG (0.005-1 nmol/well) is added and pre-incubated for 30 minutes at room temperature. Thereafter, 1×10^5 51Cr-labelled HepG2 hepatoma cells adhering to E-selectin are added, and this is incubated for another 30 minutes at room temperature. Subsequently, the unbound cells are removed by washing 3 times with Ca-PBS, and the bound cells, following lysis with 0.1 N sodium hydroxide solution, are quantified by means of radioactivity measurement. As controls, the carbohydrate-binding domain of E-selectin-blocking monoclonal antibody BBA2 (R & D Systems), EDTA to remove Ca from the test system, and the monovalent tetrasaccharide sialyl-Lewis x (sLe^x) binding selectively but with low affinity are used and carried along in parallel in the test series.
HUVECs are isolated from veins of fresh human umbilical cords, used up to the 3rd passage, and cultured to confluence in 96-well titer plates for testing. Expression on HUVEC is induced by adding 0.2 ng of IL-1β per well, reaching its maximum after 4 hours. At this point, an adhesion test/adhesion inhibition test analogous to the one for immobilized E-selectin is performed.
(§3) The IC50 values (concentration of inhibiting agent for 50% inhibition of adhesion) are indicated.

E-selectin = target: T1, E-selectin (Homo sapiens, UniProt P16581); assay: Adhesion inhibition test: HepG2 hepatoma cells to immobilized recombinant E-selectin; type: cell-based
T1 construct: purchased R & D Systems
T1 sequence (P16581 22-610): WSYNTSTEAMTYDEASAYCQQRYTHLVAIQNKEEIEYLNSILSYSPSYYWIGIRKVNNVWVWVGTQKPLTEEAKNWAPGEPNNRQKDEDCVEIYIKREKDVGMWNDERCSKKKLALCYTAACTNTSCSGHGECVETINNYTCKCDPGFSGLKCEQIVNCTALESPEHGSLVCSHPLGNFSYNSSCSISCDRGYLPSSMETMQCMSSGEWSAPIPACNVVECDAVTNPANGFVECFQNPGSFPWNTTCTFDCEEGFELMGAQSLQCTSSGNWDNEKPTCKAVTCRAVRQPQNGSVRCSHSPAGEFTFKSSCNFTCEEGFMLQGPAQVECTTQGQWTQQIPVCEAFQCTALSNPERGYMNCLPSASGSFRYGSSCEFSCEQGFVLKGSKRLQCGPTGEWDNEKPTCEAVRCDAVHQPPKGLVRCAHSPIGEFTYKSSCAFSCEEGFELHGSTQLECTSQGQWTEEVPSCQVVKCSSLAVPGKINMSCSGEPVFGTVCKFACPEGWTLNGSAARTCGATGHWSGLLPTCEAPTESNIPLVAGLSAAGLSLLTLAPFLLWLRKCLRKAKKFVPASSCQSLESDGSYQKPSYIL
Description: as §1, §2, §3

cell adhesion = assay: Testing of gestation proteins from various sources as adhesion blocker; type: cell-based
Excerpt: Testing of Gestation Proteins from Various Sources as Adhesion Blocker
The trophoblast culture line has been purchased and not subjected to genetic engineering. Isolation is effected in analogy to the production of gestation proteins of Examples 1 to 3.

[1] = HepG2 cell adhesion, concentration of inhibiting agent for 50% inhibition of adhesion

IC50 (E-selectin; [1]) [nM]	Immobilized E-selectin IC50 (E-selectin; [1])	effect, times less compared to amniotic hCG (E-selectin; adhesion inhibition test following Example 1b)	times more effective than sLe^x (E-selectin; adhesion inhibition, relative to monovalent tetrasaccharide sLe^x)	Substance	IC50 (activated HUVEC) [nM]	Adhesion blocking (cell adhesion)	Activated HUVEC IC50 (activated HUVEC)
140				Jeg3 hCG: hCG from trophoblast cell line Jeg3	100	Yes	
	None			Urinary hCG: human chorionic gonadotropin from urine of pregnant women		No	None
340		about 3 times	10^4 times	Serum hCG: human chorionic gonadotropin isolated from pooled serum of pregnant women in the first trimenon	180	Yes	
62				Amniotic hCG: human chorionic gonadotropin isolated from amniotic fluid	150	Yes	
